Tested on: mice
Conditions: 2.0 mg/kg oral 1 h before test, mean ± S.E.M.

O=C1CCc2ccc(OCCCCN3CCN(c4cccc(Cl)c4Cl)CC3)cc2N1 [Aripiprazole, reference compound]
forelimb catalepsy duration (longest): 28.84 ± 4.72 s

Source: publication PMC5931996 (Scientific Reports, 2018)
